The values below come from PubChem BioAssay AID1209 (Sanford-Burnham Center for Chemical Genomics, 2008).

Sequences of proteins named here, by UniProt entry; tags and fusion partners are left off. A change or cut given only in a name is not applied to a line headed by its entry.
UniProt P34949: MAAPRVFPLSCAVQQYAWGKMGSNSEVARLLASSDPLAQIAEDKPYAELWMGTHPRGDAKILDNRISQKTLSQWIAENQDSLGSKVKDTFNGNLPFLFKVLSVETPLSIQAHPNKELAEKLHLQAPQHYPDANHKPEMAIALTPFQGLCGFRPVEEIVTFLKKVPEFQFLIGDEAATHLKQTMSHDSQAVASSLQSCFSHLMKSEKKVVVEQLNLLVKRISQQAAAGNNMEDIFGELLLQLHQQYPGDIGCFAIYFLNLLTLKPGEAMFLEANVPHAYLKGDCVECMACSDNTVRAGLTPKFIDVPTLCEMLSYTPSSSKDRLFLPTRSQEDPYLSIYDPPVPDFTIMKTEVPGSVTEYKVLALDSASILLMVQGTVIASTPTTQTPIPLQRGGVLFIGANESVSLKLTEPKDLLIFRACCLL

The structures appear in SMILES notation. The list shows a part of the results, in another mix than the full data. Activity calls are given as the source filed them. No stated cut-off is given here; in the data, active means inhibition above about 50%; inactive means the rest.

The assay addresses Mannose-6-phosphate isomerase (Homo sapiens) (UniProt P34949). Briefly: inhibitors of human PMI, primary screen, biochemical, fluorescence intensity, coupled assay (AID 1209).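 Further: plate controls were DMSO vehicle for no effect and wells lacking substrate for full effect.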 The settings on record: purified PMI enzyme, at 20 µM, active compounds read high.
For `CCC(C)N(CC(C)C)C(=S)SC(NC(C)=O)C(Cl)(Cl)Cl` (stereo not drawn), the inhibition – broadly, the change of the read-out against control, counted positive when it falls – was inactive: -15.2%.

Regarding `O=C(COc1ccccc1)OC1CN2CCC1CC2` (stereo not drawn), the inhibition is inactive: 0.4%.

With `COP1(=S)c2c(C)nn(CCC#N)c2N=C(c2ccc(F)cc2)N1C` (stereo not drawn), the inhibition is inactive: -1.7%.

Turning to `O=P(Nc1ccccn1)(c1cccc2ccccc12)c1cccc2ccccc12`, the inhibition was inactive: 10%.

Consider `Cc1cc(SC(NC=O)C(Cl)(Cl)Cl)ncn1` (stereo not drawn), for which the inhibition was inactive: -16.6%.

For `Cc1cc(SC(NC(=O)c2ccccc2)C(Cl)(Cl)Cl)nc(C(C)C)n1` (stereo not drawn), the inhibition was inactive: 1.5%.

`O=[N+]([O-])c1cc([N+](=O)[O-])c(-c2ccn[nH]2)s1`: the inhibition is inactive: 5.9%.

Take `CC(C)NC(=O)NP(=O)(Oc1ccccc1)Oc1ccccc1`: the inhibition was inactive: 7.9%.

With `CCN(CC)C(=S)SC(NC=O)C(Cl)(Cl)Cl` (stereo not drawn), the inhibition was inactive: 3.8%.

As to `ClCCSc1nnc(-c2cccnc2)o1`, the inhibition is inactive: 10.5%.

For the compound `Cc1ccc2nc3c(c(C)c2c1)CC(C(Cl)Cl)S3` (stereo not drawn), the inhibition is inactive: 1.7%.

On to `COc1ccc(N/C(=N/P(=O)(N2CCOCC2)N2CCOCC2)N2CCOCC2)cc1`, for which the inhibition was inactive: -1.1%.

Take `COc1ccc2nc(NP(=O)(c3ccccc3)c3ccccc3)sc2c1`: the inhibition is inactive: -2.2%.

On to `Cc1c2c(nc3ccccc13)SC(C(Cl)Cl)C2` (stereo not drawn), for which the inhibition was inactive: 9.8%.

Take `Cc1cc(=O)[nH]c(N[N+](=O)[O-])n1`: the inhibition was inactive: -3.4%.

As for `O=C(OC1CN2CCC1CC2)C12CC3CC(CC(C3)C1)C2` (stereo not drawn), the inhibition is inactive: -10.4%.

With `CCOP(=O)(Nc1cccc2ccccc12)OCC`, the inhibition is inactive: 8.1%.

Consider `COc1cc(C2NCCC3(OCCO3)C2(C)C)cc(OC)c1OC` (stereo not drawn), for which the inhibition is inactive: -4.9%.

Take `Cc1ccc(NCCc2c([N+](=O)[O-])cc([N+](=O)[O-])cc2[N+](=O)[O-])cc1`: the inhibition is inactive: -2.5%.

For the compound `Cc1cccc(OCC(=O)OC2CN3CCC2CC3)c1` (stereo not drawn), the inhibition is inactive: 4.9%.

With `COc1cc(C(=O)NCC2(N3CCOCC3)CCCCC2)cc(Cl)c1OC(C)C`, the inhibition is inactive: -4.7%.

With `CCOP1(=S)c2c(C)nn(CCC#N)c2N=C(c2ccc(F)cc2)N1C` (stereo not drawn), the inhibition is inactive: -2.7%.

As for `O=[N+]([O-])c1ccc2c(c1)nnn2O`, the inhibition was inactive: -3%.

As for `O=P(Nc1nccs1)(Oc1ccccc1)Oc1ccccc1`, the inhibition is inactive: -2.5%.

As to `O=P(Nc1nccs1)(c1ccccc1)c1nc2ccccc2s1` (stereo not drawn), the inhibition is active: 107%.

Take `CCOP1(=S)c2c(C)nn(CCC#N)c2N=C(c2ccccc2F)N1C` (stereo not drawn): the inhibition is inactive: 6.5%.

In the case of `Cc1ccc(OCC(=O)OC2CN3CCC2CC3)cc1` (stereo not drawn), the inhibition was inactive: 6.7%.

For the compound `O=P1(Nc2ccc(Br)cn2)COc2ccccc2OC1`, the inhibition is inactive: 1.4%.

Regarding `O=P1(Nc2ncccn2)COc2ccccc2OC1`, the inhibition was inactive: -9%.

On to `CN(C)C1(CNC(=O)c2ccc(S(C)(=O)=O)cc2)CCCCC1`, for which the inhibition is inactive: 11%.

`CC1CCC(C(C)C)C(OP(=O)(Nc2ccccn2)c2ccccc2)C1` (stereo not drawn): the inhibition is inactive: -12.6%.

As to `Cc1nn(-c2ccccc2)c2c1P(=O)(N1CCOCC1)N(C)C(c1ccccc1)=N2` (stereo not drawn), the inhibition was inactive: 11.7%.

As to `CC(C)/C=N\N=C(\N)N[N+](=O)[O-]`, the inhibition is inactive: -17.6%.

`CN(C(=O)Cc1ccc(Cl)c(Cl)c1)[C@@H]1CCCC[C@H]1N1CCCC1`: the inhibition was inactive: -0.8%.

Take `Clc1n[nH]nc1-c1nn[nH][15n]1`: the inhibition was inactive: 5.4%.

Regarding `O=P1(Nc2ccccn2)COc2ccccc2OC1`, the inhibition is inactive: 9.7%.

`c1nnnn1CCn1cnnn1`: the inhibition is inactive: 10.8%.

Consider `CC(C)C(=O)NC(Sc1ccccc1)C(Cl)(Cl)Cl` (stereo not drawn), for which the inhibition was inactive: 3.8%.

Consider `O=P(Nc1nccs1)(c1ccccc1)c1ccccc1`, for which the inhibition is inactive: -2.4%.

Turning to `O=C(OC1CN2CCC1CC2)c1cccc(Cl)c1` (stereo not drawn), the inhibition was inactive: 12.7%.

Regarding `C(Cc1nn[nH]n1)Cc1nn[nH]n1`, the inhibition was inactive: 32.6%.

As to `CC(=O)NC(SC(=S)N(C)C)C(Cl)(Cl)Cl` (stereo not drawn), the inhibition was inactive: 0.1%.

With `O=P(Nc1ccccn1)(c1ccc(Br)cc1)c1ccc(Br)cc1`, the inhibition is inactive: -1.9%.

As for `O=c1c2cc([N+](=O)[O-])ccc2[nH]c2c([N+](=O)[O-])cc([N+](=O)[O-])cc12`, the inhibition was inactive: 4%.

With `CCC(=O)N1C2C3N(C(=O)CC)C1C1N(C(=O)CC)C(C(N1C(=O)CC)N3C(=O)CC)N2C(=O)CC`, the inhibition is inactive: -7.5%.

`CC(=O)NC(SC(=S)N(CC(C)C)CC(C)C)C(Cl)(Cl)Cl` (stereo not drawn): the inhibition is inactive: -7.2%.

`Cc1ccc(OP(=O)(Nc2ccccn2)Oc2ccc(C)cc2)cc1`: the inhibition was inactive: 8.7%.

Turning to `COC(=O)c1cc2c(s1)N=C(c1ccccc1)N(C)P2(=O)N1CCOCC1` (stereo not drawn), the inhibition is inactive: 0.7%.

For `CCOC(=O)NC(Sc1ccccc1)C(Cl)(Cl)Cl` (stereo not drawn), the inhibition was inactive: 1.3%.

For `c1ccc(-c2nn[nH]n2)c(-c2nn[nH]n2)c1`, the inhibition was inactive: -18.9%.

With `CCNC(=S)/N=C(\N)N[N+](=O)[O-]`, the inhibition was inactive: -3.4%.

Regarding `O=C(NC1CCS(=O)(=O)C1)NP(=S)(Oc1ccccc1)Oc1ccccc1` (stereo not drawn), the inhibition was inactive: 15.5%.

In the case of `CC(=O)Nc1ccc(Oc2c([N+](=O)[O-])cc([N+](=O)[O-])cc2[N+](=O)[O-])cc1`, the inhibition is inactive: -15.6%.

Take `CC(C)(C)C(=O)NC(Sc1ccccc1)C(Cl)(Cl)Cl` (stereo not drawn): the inhibition is inactive: 2.2%.

Take `CCOc1ccc(C2=NCC(CBr)S2)cc1` (stereo not drawn): the inhibition was inactive: 2.1%.

Take `O=P1(Nc2nc3ccc(Cl)cc3s2)COc2ccccc2O1` (stereo not drawn): the inhibition is inactive: 16.4%.

On to `O=C(NC(Sc1ccncn1)C(Cl)(Cl)Cl)c1ccccc1` (stereo not drawn), for which the inhibition is inactive: 1.1%.

As for `Cc1c2non([O-])c-2c(C)[n+](=O)[n+]1[O-]`, the inhibition is inactive: 37.4%.

With `Oc1ccccc1CNc1ccccn1`, the inhibition was inactive: 3.7%.

Take `CC(C)CC(=O)NC(Sc1ccc(Cl)cc1)C(Cl)(Cl)Cl` (stereo not drawn): the inhibition is inactive: -5.1%.

Take `CN1CCCC(OC(=O)C(c2ccccc2)c2ccccc2)C1` (stereo not drawn): the inhibition was inactive: -8.2%.

Consider `Clc1ccc(Cl)c(NC2=NCC(CBr)S2)c1` (stereo not drawn), for which the inhibition was inactive: -25.6%.

For the compound `COc1ccccc1OP(=O)(Nc1ccc(C)cn1)Oc1ccccc1OC`, the inhibition was inactive: -0.6%.

Take `Cc1ccc(N/C(=N/P(=O)(N2CCOCC2)N2CCOCC2)N2CCOCC2)cc1`: the inhibition is inactive: -0.9%.

In the case of `NC(=O)c1cc([N+](=O)[O-])cc([N+](=O)[O-])c1N`, the inhibition was inactive: -5.6%.

With `CCN(N=Nc1nonc1N)c1nonc1N`, the inhibition was inactive: 15%.

For `Cc1cc(SC(NC(=O)c2ccc(F)cc2)C(Cl)(Cl)Cl)ncn1` (stereo not drawn), the inhibition is inactive: -14.2%.

Regarding `CCOP(=O)(Nc1ccccc1)OCC`, the inhibition was inactive: -1.4%.

`O=[N+]([O-])c1ncn(CCn2ncnc2[N+](=O)[O-])n1`: the inhibition was inactive: -9.4%.

In the case of `CC1CCN(C(=O)Oc2c(Cl)cc(Cl)c3cccnc23)CC1`, the inhibition was inactive: 0.9%.

For the compound `CN(C)C(=O)OCCc1n(C)cc[n+]1C`, the inhibition was inactive: 2%.

In the case of `CC(C)=N/N=C(\N)N[N+](=O)[O-]`, the inhibition was inactive: -9.3%.

For `CCN(/C(=N/P(=O)(N1CCOCC1)N1CCOCC1)N1CCOCC1)c1ccc(OC)cc1`, the inhibition was inactive: -4.7%.

On to `O=[N+]([O-])c1cc([N+](=O)[O-])c(CCNc2ccccc2)c([N+](=O)[O-])c1`, for which the inhibition was inactive: -23.9%.

Turning to `Cc1ccc(NP(=O)(Oc2ccccc2)Oc2ccccc2)nc1`, the inhibition is inactive: 3.3%.

Take `O=[N+]([O-])c1cccc2n[nH]nc12`: the inhibition was inactive: -5.9%.

Turning to `CC(=O)N1C2C3N(C(C)=O)C1C1N(C(C)=O)C(C(N1C(C)=O)N3C(C)=O)N2C(C)=O`, the inhibition was inactive: 0.6%.

As to `COc1ccc(C2=NCC(CBr)S2)cc1` (stereo not drawn), the inhibition was inactive: 5.2%.
